Assay results from patent publication US20250264483A1, “IDENTIFICATION OF PROTHROMBOTIC CONDITIONS” (Sydney Local Health District, priority 2020, published 2025).

Tested on: healthy donor platelets
Experiment: Procoagulant platelet flow cytometry assay, healthy donor whole blood with APS patient plasma
Type: cell-based, human
Conditions: eculizumab 50 μg/mL pre-treatment 15 min
Method: The GSAO-based whole blood PP flow cytometry assay established by the inventors^4 was modified to incorporate patient plasma. Citrated whole blood (13 μL) was incubated with and without agonists, unfractionated heparin (Pfizer) and plasma (5 μL) for 10 minutes with final concentrations of 2.5 mM Gly-Pro-Arg-Pro peptide (Sigma-Aldrich) and 2.5 mM calcium chloride. […] In some experiments, blood was pre-treated with 10 μg/mL IV.3 (StemCell Technologies), a monoclonal antibody against FcγRIIa, for 15 minutes prior to the reaction. Samples were incubated with antibodies to CD45, CD41a, CD62P—or isotype control, and GSAO or GSCA, and fixed before analysis on a BD LSRFortessa X-20.
Citrated whole blood (13 μL) was incubated with platelet agonists and plasma (5 μL) from healthy donors or patients, for 10 minutes with final concentrations of 2.5 mM Gly-Pro-Arg-Pro peptide (Sigma-Aldrich) and 2.5 mM calcium chloride in a 50 μL reaction. […] In some experiments, blood was pre-treated with 50 μg/mL eculizumab (monoclonal antibody against complement protein C5 (Soliris)) for 15 minutes prior to the reaction. […]

B1: eculizumab: monoclonal antibody against complement protein C5 (antibody, chains of the INN, looked up)
heavy: QVQLVQSGAEVKKPGASVKVSCKASGYIFSNYWIQWVRQAPGQGLEWMGEILPGSGSTEYTENFKDRVTMTRDTSTSTVYMELSSLRSEDTAVYYCARYFFGSSPNWYFDVWGQGTLVTVSSASTKGPSVFPLAPCSRSTSESTAALGCLVKDYFPEPVTVSWNSGALTSGVHTFPAVLQSSGLYSLSSVVTVPSSNFGTQTYTCNVDHKPSNTKVDKTVERKCCVECPPCPAPPVAGPSVFLFPPKPKDTLMISRTPEVTCVVVDVSQEDPEVQFNWYVDGVEVHNAKTKPREEQFNSTYRVVSVLTVLHQDWLNGKEYKCKVSNKGLPSSIEKTISKAKGQPREPQVYTLPPSQEEMTKNQVSLTCLVKGFYPSDIAVEWESNGQPENNYKTTPPVLDSDGSFFLYSRLTVDKSRWQEGNVFSCSVMHEALHNHYTQKSLSLSLG
light: DIQMTQSPSSLSASVGDRVTITCGASENIYGALNWYQQKPGKAPKLLIYGATNLADGVPSRFSGSGSGTDFTLTISSLQPEDFATYYCQNVLNTPLTFGQGTKVEIKRTVAAPSVFIFPPSDEQLKSGTASVVCLLNNFYPREAKVQWKVDNALQSGNSQESVTEQDSKDSTYSLSSTLTLSKADYEKHKVYACEVTHQGLSSPVTKSFNRGEC
Plasma collected from plasma exchange (PLEX) (FIG. 15)
  inhibition of hypersensitivity to thrombin induced by APS patient plasma: not fully inhibited
Plasma collected post plasma exchange (Post-PLEX) (FIG. 16)
  inhibition of hypersensitivity to thrombin induced by APS patient plasma: not fully inhibited
